Target: Proto-oncogene tyrosine-protein kinase Src (Homo sapiens, UniProt P12931)
Test: The compound was evaluated for its binding affinity towards phosphotyrosine binding pocket of Src protein tyrosine kinase SH2 domain

The chains behind the UniProt entries cited, without tags or fusion partners. Where a name states a change or a piece, a line headed by the entry shows the natural chain unless it says otherwise.
UniProt P12931: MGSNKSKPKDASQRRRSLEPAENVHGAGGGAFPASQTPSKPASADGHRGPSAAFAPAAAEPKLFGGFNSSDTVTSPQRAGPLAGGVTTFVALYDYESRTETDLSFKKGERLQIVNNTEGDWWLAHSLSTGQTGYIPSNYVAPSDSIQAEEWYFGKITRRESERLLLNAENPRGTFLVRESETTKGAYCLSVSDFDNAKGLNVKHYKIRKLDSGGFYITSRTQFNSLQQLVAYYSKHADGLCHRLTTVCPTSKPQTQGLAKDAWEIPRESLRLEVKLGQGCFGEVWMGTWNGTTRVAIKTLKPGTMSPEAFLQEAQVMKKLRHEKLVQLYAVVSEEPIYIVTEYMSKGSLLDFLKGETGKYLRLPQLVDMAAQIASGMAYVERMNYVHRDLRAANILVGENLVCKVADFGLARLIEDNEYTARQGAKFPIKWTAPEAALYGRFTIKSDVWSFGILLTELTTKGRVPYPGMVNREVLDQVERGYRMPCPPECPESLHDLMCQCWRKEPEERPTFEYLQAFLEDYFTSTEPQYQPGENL

- IC50: 4.4 mM
SMILES: CCc1ccc(NC(=O)P(=O)(O)O)cc1

— ChEMBL document CHEMBL1135868, “Small ligands interacting with the phosphotyrosine binding pocket of the Src SH2 protein” (Bioorg Med Chem Lett, 2002)
